Measurements as given in ChEMBL document CHEMBL4330088, “Targeting the immunity protein kinases for immuno-oncology” (Eur J Med Chem, 2019).

Protein sequences, listed by entry. Tags and fused reporters are not part of them.
UniProt P42336, whole entry: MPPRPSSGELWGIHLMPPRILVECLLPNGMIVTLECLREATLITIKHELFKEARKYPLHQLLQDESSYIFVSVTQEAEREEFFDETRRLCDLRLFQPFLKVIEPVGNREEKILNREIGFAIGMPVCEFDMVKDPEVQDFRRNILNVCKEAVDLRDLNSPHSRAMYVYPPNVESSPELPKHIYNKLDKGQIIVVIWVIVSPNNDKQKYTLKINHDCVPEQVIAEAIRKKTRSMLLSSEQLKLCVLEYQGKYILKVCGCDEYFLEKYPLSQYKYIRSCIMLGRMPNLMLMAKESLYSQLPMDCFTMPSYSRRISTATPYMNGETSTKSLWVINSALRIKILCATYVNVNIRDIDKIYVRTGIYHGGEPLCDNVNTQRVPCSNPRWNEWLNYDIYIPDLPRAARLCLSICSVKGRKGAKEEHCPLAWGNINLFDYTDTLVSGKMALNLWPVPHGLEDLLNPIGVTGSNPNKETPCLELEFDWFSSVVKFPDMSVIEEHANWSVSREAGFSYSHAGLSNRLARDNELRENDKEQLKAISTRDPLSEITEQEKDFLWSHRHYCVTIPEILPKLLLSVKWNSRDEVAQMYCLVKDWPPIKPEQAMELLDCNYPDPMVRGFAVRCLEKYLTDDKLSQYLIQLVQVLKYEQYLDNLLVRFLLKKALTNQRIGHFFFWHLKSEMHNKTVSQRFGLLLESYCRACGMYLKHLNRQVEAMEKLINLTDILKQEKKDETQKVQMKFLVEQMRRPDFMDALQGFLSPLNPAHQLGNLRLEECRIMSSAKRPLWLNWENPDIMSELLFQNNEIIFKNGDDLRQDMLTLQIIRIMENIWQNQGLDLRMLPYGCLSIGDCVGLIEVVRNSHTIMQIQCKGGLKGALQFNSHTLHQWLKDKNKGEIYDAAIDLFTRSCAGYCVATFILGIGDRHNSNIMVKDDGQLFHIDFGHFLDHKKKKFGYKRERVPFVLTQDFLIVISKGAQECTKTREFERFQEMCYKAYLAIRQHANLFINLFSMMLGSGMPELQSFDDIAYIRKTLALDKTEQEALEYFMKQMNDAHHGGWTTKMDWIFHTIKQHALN

Key:
[1] = target: T1, Phosphatidylinositol 4,5-bisphosphate 3-kinase catalytic subunit delta isoform (Homo sapiens, UniProt O00329); experiment: Inhibition of PI3Kdelta (unknown origin)
T1 sequence (O00329 whole entry): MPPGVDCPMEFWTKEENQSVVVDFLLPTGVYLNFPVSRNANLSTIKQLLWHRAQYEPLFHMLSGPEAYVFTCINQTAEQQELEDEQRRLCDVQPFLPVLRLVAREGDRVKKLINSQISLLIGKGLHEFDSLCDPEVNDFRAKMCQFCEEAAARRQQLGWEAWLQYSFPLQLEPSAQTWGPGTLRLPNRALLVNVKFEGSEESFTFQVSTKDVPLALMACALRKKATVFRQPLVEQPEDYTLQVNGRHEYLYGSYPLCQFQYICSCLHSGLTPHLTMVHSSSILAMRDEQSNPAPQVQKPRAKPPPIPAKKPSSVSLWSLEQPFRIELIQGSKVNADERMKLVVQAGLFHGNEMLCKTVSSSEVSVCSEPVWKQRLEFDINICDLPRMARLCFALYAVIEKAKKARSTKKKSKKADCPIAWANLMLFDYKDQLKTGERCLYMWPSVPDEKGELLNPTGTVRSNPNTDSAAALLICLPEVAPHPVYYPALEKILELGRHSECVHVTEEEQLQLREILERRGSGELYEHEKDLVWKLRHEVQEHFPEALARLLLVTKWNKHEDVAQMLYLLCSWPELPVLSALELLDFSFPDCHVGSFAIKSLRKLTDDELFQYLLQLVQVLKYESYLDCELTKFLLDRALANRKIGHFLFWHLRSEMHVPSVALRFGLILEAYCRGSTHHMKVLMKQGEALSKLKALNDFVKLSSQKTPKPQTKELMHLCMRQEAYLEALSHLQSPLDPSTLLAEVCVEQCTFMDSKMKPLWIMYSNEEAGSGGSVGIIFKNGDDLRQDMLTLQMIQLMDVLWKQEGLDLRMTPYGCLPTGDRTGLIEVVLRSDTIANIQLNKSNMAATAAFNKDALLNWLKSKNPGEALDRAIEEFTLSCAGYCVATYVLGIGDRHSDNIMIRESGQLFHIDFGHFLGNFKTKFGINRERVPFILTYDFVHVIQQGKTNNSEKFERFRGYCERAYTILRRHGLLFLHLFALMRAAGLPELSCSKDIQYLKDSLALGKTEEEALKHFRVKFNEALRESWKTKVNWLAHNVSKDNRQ

[2] = target: Phosphatidylinositol 4,5-bisphosphate 3-kinase catalytic subunit alpha isoform (Homo sapiens, UniProt P42336); experiment: Inhibition of PI3Kalpha (unknown origin)

## C[C@H](NC(=O)c1c(N)nn2cccnc12)c1cc2cccc(C#Cc3cnn(C)c3)c2c(=O)n1-c1ccccc1 [EGANELISIB]
[1]
  IC50: 23 nM
[2]
  IC50: 17 nM
